Measurements taken from US8575100B2, “Tc and Re labeled radioactive glycosylated octreotide derivatives” (Mallinckrodt LLC, priority 2001, dated 2013).

Experiments:
AR42J-cells (SSTR2) = assay: Internalization of radioligands in AR42J cells; details: 60 min incubation; ratio normalized to the reference [125I]TOC
Description: The cells were incubated with the radioligand for up to 120 min (n=3). At each time point the activity in the supernatant, the surface-bound and the internalized activity were determined and normalized to the values of TOC. Externalization and recycling was studied after an incubation time of 120 min over 2 h. Specificity of ligand binding was studied in a competition experiment with […] Sandostatin.
Internalisation and externalisation experiments were performed using the sst2 expressing rat pancreatic tumor cell line AR42J. Free, surface bound and internalised radioactivity were determined after 10, 30, 60, 90 and 120 min. of incubation with the radioligands at 37° C. In the externalisation experiments allowing ligand recycling, the fraction of radioactivity released into the supernatant during 10, 30, 60, 90 and 120 min as well as the radioactivity remaining in the cells were determined. We also measured the activity released during 5 subsequent incubations (10, 20 and 3×30 min) with intermediate changes of the medium (limited recycling).
Coupling of glucose (Gluc) and maltotriose (Mtr) to N^α-Lys of N^ε-(Boc-His(Boc))Lys^0-Tyr^3-Lys^5(Dde)-octreotide (protected K(H)TOC) and final deprotection yielded Gluc- and Mtr-K(H)TOC. ^99mTc-labeling was carried out using [^99mTc(H2O)3(CO)3]^+. […] Biodistribution was evaluated in nude mice bearing AR42J tumors at 0.5 and 2 h p.i (n=4). […]

[1] = system: AR42J tumor bearing nude mice; assay: Biodistribution in AR42J tumor bearing nude mice; format: in vivo
Description: Biodistribution studies of the ^99mTc-labelled derivatives (30 and 120 min p.i.) were performed in AR42J-tumor bearing nude mice (n=3-4). Internalisation and externalisation experiments were carried out using the same cell line.
To establish tumor growth, subconfluent monolayer cells were treated with 1 mM EDTA, suspended, centrifuged and resuspended in RPMI 1640.
Nude mice (male and female, 6-8 weeks) were inoculated s.c. in the flank with 2.5-3×10^7 cells suspended in 100 μl of PBS (pH 7.4), were injected i.v. into the tail vein of nude mice bearing an AR42J tumor. The animals (n=3-4) were sacrificed 30 and 120 min p.i, and the organs of interest were dissected. The radioactivity was measured in weighted tissue samples using a gamma counter. Data are expressed in % iD/g tissue (mean±DS, n=3-4).

| Substance | surface availability (% surface-bound ligand/% free radioligand) (AR42J-cells (SSTR2)) | blood levels ([1]; 2 h (120 min) p.i., n=4) [% ID/g] | tumor accumulation ([1]; 2 h (120 min) p.i., n=4) [% ID/g] | Tissue accumulation adrenals ([1]; 2 h p.i., n = 3-4) [% iD/g] | Tissue accumulation blood ([1]; 2 h p.i., n = 3-4) [% iD/g] | Tissue accumulation intestine ([1]; 2 h p.i., n = 3-4) [% iD/g] | Tissue accumulation kidney ([1]; 2 h p.i., n = 3-4) [% iD/g] | Tissue accumulation liver ([1]; 2 h p.i., n = 3-4) [% iD/g] | Tissue accumulation muscle ([1]; 2 h p.i., n = 3-4) [% iD/g] | Tissue accumulation pancreas ([1]; 2 h p.i., n = 3-4) [% iD/g] | Tissue accumulation stomach ([1]; 2 h p.i., n = 3-4) [% iD/g] | Tissue accumulation tumor ([1]; 2 h p.i., n = 3-4) [% iD/g] | T/kidney ([1]; tumor to kidney ratio, 2 h p.i.) | T/liver ([1]; tumor to liver ratio, 2 h p.i.) |
| --- | --- | --- | --- | --- | --- | --- | --- | --- | --- | --- | --- | --- | --- | --- |
| Na-(1-deoxy-D-fructosyl)-Lys^0(Nε-His [^99mTc (H2O)(CO)3]+)-Tyr^3-octreotide [[^99mTc]Gluc-K^0(H)TOC] | 204 ± 54 | 1.5±0.2 | 12.2±1.0 | 6.47 ± 1.46 | 1.49 ± 0.18 | 2.83 ± 0.28 | 19.49 ± 2.22 | 15.89 ± 2.70 | 0.22 ± 0.04 | 6.43 ± 2.09 | 11.28 ± 2.74 | 12.21 ± 0.96 | 0.63 | 0.77 |
| [^125I]Tyr^3-octreotide [[^125I]TOC, reference compound] | 100 |  |  |  |  |  |  |  |  |  |  |  |  |  |
